According to patent US9174983B2, “Pyrroloquinoline quinone disodium salt crystal and method for producing the same” (MITSUBISHI GAS CHEMICAL COMPANY, INC., priority 2011, dated 2015):

Settings: 30° C., a half day or more; absorbed water and turned to a form similar to the precursor crystal

In the case of “pyrroloquinoline quinone disodium crystal [Crystalline Form 2]”, the “stability of the crystal on standing” value is reported as “unstable”.
